# Test results: paper PMC9877232, “A biocatalytic peptidobiosensing molecular bridge for detecting osteosarcoma marker protein” (Frontiers in Chemistry, 2023)
# Test system: MDM2
# Experiment: square wave voltammetry of poly-tyrosine, control detection of MDM2
# Set-up: species or system human
# Conditions: detecting 10 nM MDM2, 10 mM PBS, pH 7.4
# Excerpt: Synthetic peptide probes (theirs sequences was shown as Supplementary Figure S1), and a control synthetic peptide with the protein targeting sequence swapped as TSFAEYWNLLSP, were tailor-made as freeze-dried powder, with higher than 95% nominal purity, by Conngbibio Co., Ltd. Poly-tyrosine was purchased from Sigma-Aldrich. Recombinant G-protein subunit alpha and avidin were from Abcam, while recombinant integrin was from the R&D system. Recombinant human murine double minute 2 (hMDM2) (>98%) was purchased from ProSpec-Tany TechnoGene Ltd. The other compounds were all of an analytical caliber. […]
# A MicroCal ITC200 System was used to make measurements using isothermal titration calorimetry (ITC) (GE healthcare life sciences). […] Each set of data was adjusted for heats of dilution, which were calculated by titrating past saturation. […] A QM-4/2005 fluorescence spectrometer (Photon Technology International, Inc., Birmingham, NJ) fitted with a xenon lamp was used to measure the fluorescence emission spectra of surfaces. […] For fluorescence measurements, the slides were stored in a water-filled cuvette at a 60-degree angle from the cuvette’s base. […] In 10 mM PBS, pH 7.4, deoxygenated by purging with nitrogen gas, and maintained in this inert atmosphere during the electrochemical studies, square wave voltammograms (SUVs) were recorded. […]
sequence,measurement,value
TSFAEYWNLLSP [peptide derived from p53],signal response (poly-tyrosine square wave voltammogram),almost totally compromised signal response
